This experiment has as its target T1, human 20S proteasome.
T1 construct: human proteasome isolated from erythrocytes; from tissue; host or cells: human erythrocytes
The experiment is described as follows: Microscale thermophoresis (MST) binding to NT-647 labeled proteasome. As to conditions: Hill fit, n = 3, read-out: EC50 (binding with h20S). The source says:
One of them tested the ability of the compounds to interact with the human 20S proteasome. We used microscale thermophoresis for this purpose and performed measurements utilizing proteasomes labeled with the NT-647 dye. Using the recorded thermophoretic transitions, we determined proteasome-modulator affinity (Figure 4A,B).
The 20S proteasome was labeled following the manufacturer’s protocol using the RED-NHS 2nd Generation labeling kit, NT-647 (NanoTemper Technologies GmbH, Munich, Germany). Monolith X (NanoTemper) was used to study the interaction between the fluorescently labeled enzyme and the activators. The assay buffer was 50 mM Tris/HCl, pH 7.2, supplemented with 5% glycerol. Serial dilutions of the activators, spanning 16 concentrations from 1.5 nM to 50 μM, were prepared and mixed with the labeled proteasome, whose concentration was kept constant at 10 nM. The IR laser radiation intensity was automatically optimized by the system. MST data were analyzed by fitting the resulting curves using the Hill equation in OriginPro 2021. EC50 values were determined from the results of three independent experiments.
A general note: In MST a laser heats a spot of the sample, and binding alters the fluorescence response.

In general, EC50 refers to the concentration needed to bring the measured effect to its halfway point.

On to `C[C@@H](O)[C@H](NC(=O)[C@H](Cc1ccccc1)NC(=O)[C@H](Cc1ccc(O)cc1)NC(=O)CN(CCCCN)C(=O)[C@H](CCCNC(=N)N)NC(=O)[C@H](CCCNC(=N)N)NC(=O)[C@H](CCCNC(=N)N)NC(=O)[C@H](CCC(N)=O)NC(=O)[C@H](CCCNC(=N)N)NC(=O)[C@H](CCCNC(=N)N)NC(=O)[C@H](CCCCN)NC(=O)[C@H](CCCCN)NC(=O)[C@@H](N)CCCNC(=N)N)C(=O)NCC(=O)N[C@@H](CO)C(=O)N[C@@H](CCCCN)C(=O)N[C@@H](CC(=O)O)C(=O)N[C@@H](Cc1c[nH]c2ccccc12)C(=O)N[C@@H](CCCNC(=N)N)C(=O)N[C@@H](CO)C(=O)N[C@@H](Cc1ccc(O)cc1)C(=O)N[C@@H](Cc1ccc(O)cc1)C(=O)N[C@@H](CO)C(=O)O` [1f], for which the EC50 worked out at 1.33 ± 0.09 µM.

The record behind these values is paper PMC12035797, “Peptidomimetics Activating the Proteasome: A New Perspective for Parkinson’s Treatment” (Journal of Medicinal Chemistry, 2025).
